A short description of test [1]: Selectivity ratio of IC50 for inhibition of TGFBR1 (unknown origin) to IC50 for inhibition of recombinant C-terminal 6His-tagged human BMPR2 (188 to 517 residues) expressed in Escherichia coli Rosetta.
Test [2] can be described thus: Selectivity ratio of IC50 for inhibition of BMPR1B (unknown origin) to IC50 for inhibition of recombinant C-terminal 6His-tagged human BMPR2 (188 to 517 residues) expressed in Escherichia coli Rosetta.
Test [3] in a line: Selectivity ratio of IC50 for inhibition of TGFBR2 (unknown origin) to IC50 for inhibition of recombinant C-terminal 6His-tagged human BMPR2 (188 to 517 residues) expressed in Escherichia coli Rosetta.
The nature of test [4]: Selectivity ratio of IC50 for inhibition of ACVR1 (unknown origin) to IC50 for inhibition of recombinant C-terminal 6His-tagged human BMPR2 (188 to 517 residues) expressed in Escherichia coli Rosetta.
Test [5] is described as follows: Selectivity ratio of IC50 for inhibition of BMPR1A (unknown origin) to IC50 for inhibition of recombinant C-terminal 6His-tagged human BMPR2 (188 to 517 residues) expressed in Escherichia coli Rosetta.
Test [6] is described as follows: Selectivity ratio of IC50 for inhibition of ACVRL1 (unknown origin) to IC50 for inhibition of recombinant C-terminal 6His-tagged human BMPR2 (188 to 517 residues) expressed in Escherichia coli Rosetta.

SMILES strings stand for the structures.

Consider `CNC(=O)[C@@H]1CC[C@@H](n2c(-c3ccc4cnccc4c3)nc3ccc(C(=O)NCc4cccc(C(N)=O)c4)cc32)C1`, for which the Ratio IC50 in test [1] is above 555; in test [2] it was above 555; in test [3] it was above 555; in test [4], 139; in test [5], above 555; in test [6] it was 148.

`NC(=O)c1cccc(CNC(=O)c2ccc3nc(-c4ccc5cnccc5c4)n(C4CCCC4)c3c2)c1`: the Ratio IC50 in test [1] is above 830; in test [2], above 830; in test [4], 130; in test [5], above 830; in test [6] it was 110.
